Test results taken from patent US20240025949A1, “Beta-Arrestin Effectors and Compositions and Methods of Use Thereof” (Trevena, Inc., priority 2021, published 2024).
pEC50: −log10 of the molar value.

Sequences of proteins named here, by UniProt entry; tags and fusion partners are left off.
UniProt P25095, whole entry: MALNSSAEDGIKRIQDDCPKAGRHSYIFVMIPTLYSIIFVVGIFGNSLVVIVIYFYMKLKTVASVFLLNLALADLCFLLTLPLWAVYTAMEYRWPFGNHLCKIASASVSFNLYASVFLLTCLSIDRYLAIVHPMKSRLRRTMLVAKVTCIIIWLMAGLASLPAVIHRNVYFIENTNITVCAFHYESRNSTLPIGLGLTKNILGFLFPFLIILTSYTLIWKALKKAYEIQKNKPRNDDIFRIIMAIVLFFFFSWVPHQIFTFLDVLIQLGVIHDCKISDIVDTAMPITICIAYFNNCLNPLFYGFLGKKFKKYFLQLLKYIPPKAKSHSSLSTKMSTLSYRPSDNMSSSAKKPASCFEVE

Key:
Format in all cases: cell-based
rat AT1aR [1] = biological target: T1, rat AT1aR (Rattus norvegicus, UniProt P25095); test: IP1 accumulation assay (IP-One Tb), rat AT1aR; settings: cells expressing rat AT1aR
T1 construct: ProLink (β-galactosidase enzyme-donor fragment, from the pCMV-ProLink vector)

human AT1R [2] = biological target: T2, human AT1R (Homo sapiens, UniProt P30556); test: PathHunter β-arrestin-2 recruitment assay, human AT1R; settings: PathHunter β-arrestin HEK293 cells
T2 construct: ProLink (β-galactosidase enzyme-donor fragment, from the pCMV-ProLink vector)

rat AT1aR [3] = biological target: T1, rat AT1aR; test: PathHunter β-arrestin-2 recruitment assay, rat AT1aR; settings: PathHunter β-arrestin HEK293 cells
human AT1R [4] = biological target: T2, human AT1R; test: IP1 accumulation assay (IP-One Tb), human AT1R; settings: cells expressing human AT1R; for human AT1R IP One EC50 (M): inactive = EC50 greater than 10 uM
[5] = inactive = EC50 greater than 10 uM

Structure (SMILES) | rat AT1aR IP One EC50 (M) (rat AT1aR [1]; [5]) | human AT1R b-arrestin2 Max (%) (human AT1R [2]) | rat AT1aR b-arrestin2 Max (%) (rat AT1aR [3]) | human AT1R IP One EC50 (M) (human AT1R [4]) | rat AT1aR IP One Max (%) (rat AT1aR [1]) | rat AT1aR b-arrestin2 EC50 (M) (rat AT1aR [3]; [5]) | pEC50 (rat AT1aR [1]; [5]) | human AT1R IP One Max (%) (human AT1R [4])
CNCC(=O)N[C@@H](CCCNC(=N)N)C(=O)N[C@H](C(=O)N[C@@H](Cc1ccc(O)cc1)C(=O)N[C@@H](Cc1ccccc1)C(=O)N[C@@H](Cc1c[nH]cn1)C(=O)N1CCC[C@H]1C(=O)N[C@@H](C)C(=O)O)C(C)C [compound 21] | Inactive | 64.4 | 82.7 | inactive |  |  |  | 
CC[C@H](C)[C@H](NC(=O)[C@H](Cc1cc([N+](=O)[O-])c(O)c([N+](=O)[O-])c1)NC(=O)[C@@H](NC(=O)[C@H](CCCNC(=N)N)NC(=O)CNC)C(C)C)C(=O)N[C@@H](Cc1c[nH]cn1)C(=O)N1CCC[C@H]1C(=O)N[C@H](C)C(=O)O [compound 73] |  | 46.8 | 77.4 | inactive | 20.8 |  |  | 
CC[C@H](C)[C@H](NC(=O)[C@H](Cc1ccc(O)cc1)NC(=O)[C@@H](NC(=O)[C@H](CCCNC(=N)N)NC(=O)CNC)C(C)C)C(=O)N[C@@H](Cc1c[nH]cn1)C(=O)N1CCC[C@H]1C(=O)N[C@H](C)C(=O)O [compound 27] | Inactive | 58.1 | 84.2 | inactive |  |  |  | 
CC[C@H](C)[C@H](NC(=O)[C@@H]1CCCN1C(=O)[C@H](Cc1c[nH]cn1)NC(=O)[C@@H](NC(=O)[C@@H](NC(=O)[C@@H](NC(=O)[C@H](CCCNC(=N)N)NC(=O)CNC)C(C)C)[C@@H](C)CC)C(C)C)C(=O)O [compound 3] |  | 36.5 | 67.1 | inactive | 19.6 |  |  | 
CC[C@H](C)[C@H](NC(=O)[C@@H]1CCCN1C(=O)[C@H](Cc1c[nH]cn1)NC(=O)[C@@H](NC(=O)[C@@H](NC(=O)[C@@H](NC(=O)[C@H](CCCNC(=N)N)NC(=O)CNC)C(C)C)[C@@H](C)CC)[C@@H](C)CC)C(N)=O [compound 2] |  | 24.9 |  | inactive | 33.8 | inactive |  | 
CNCC(=O)N[C@@H](CCCNC(=N)N)C(=O)N[C@H](C(=O)N[C@@H](Cc1ccc(O)cc1)C(=O)N[C@H](C(=O)N[C@@H](Cc1c[nH]cn1)C(=O)N1CCC[C@H]1C(=O)N[C@@H](C)C(=O)O)C(C)C)C(C)C [compound 7] |  |  |  | inactive |  |  |  | 
CC[C@H](C)[C@H](NC(=O)[C@@H]1CCCN1C(=O)[C@H](Cc1c[nH]cn1)NC(=O)[C@@H](NC(=O)[C@H](Cc1ccc(O)cc1)NC(=O)[C@@H](NC(=O)[C@H](CCCNC(=N)N)NC(=O)CNC)C(C)C)C(C)C)C(=O)O [compound 11] |  | 58.9 | 80.7 | inactive | 24.4 |  |  | 
CC[C@H](C)[C@H](NC(=O)[C@H](Cc1c(F)cc(O)cc1F)NC(=O)[C@@H](NC(=O)[C@H](CCCNC(=N)N)NC(=O)CNC)C(C)C)C(=O)N[C@@H](Cc1c[nH]cn1)C(=O)N1CCC[C@H]1C(=O)N[C@H](C)C(=O)O [compound 71] | Inactive | 52.7 | 81.7 | inactive |  |  |  | 
CNCC(=O)N[C@@H](CCCNC(=N)N)C(=O)N[C@H](C(=O)N[C@@H](Cc1ccc(O)cc1)C(=O)N[C@@H](CCCNC(=N)N)C(=O)N[C@@H](Cc1c[nH]cn1)C(=O)N1CCC[C@H]1C(=O)N[C@@H](C)C(=O)O)C(C)C [compound 24] |  | 61.3 | 74.1 | inactive | 15.1 |  |  | 
CC[C@H](C)[C@H](NC(=O)[C@H](Cc1ccc(O)cc1)NC(=O)[C@@H](NC(=O)[C@H](CCCNC(=N)N)NC(=O)CNC)C(C)C)C(=O)N[C@@H](Cc1c[nH]cn1)C(=O)N1CCC[C@H]1C(=O)N[C@@H](C)C(N)=O [compound 10] |  |  | 60.3 | inactive | 13.3 |  |  | 
CC[C@H](C)[C@H](NC(=O)[C@H](Cc1c(C)cc(O)cc1C)NC(=O)[C@@H](NC(=O)[C@H](CCCNC(=N)N)NC(=O)CNC)C(C)C)C(=O)N[C@@H](Cc1c[nH]cn1)C(=O)N1CCC[C@H]1C(=O)N[C@H](C)C(=O)O [compound 68] |  | 39.2 | 59.2 | inactive | 21.2 |  | 4.60 | 
C=CCOc1ccc(C[C@H](NC(=O)[C@@H](NC(=O)[C@H](CCCNC(=N)N)NC(=O)CNC)C(C)C)C(=O)N[C@H](C(=O)N[C@@H](Cc2c[nH]cn2)C(=O)N2CCC[C@H]2C(=O)N[C@H](C)C(=O)O)[C@@H](C)CC)cc1 [compound 76] | Inactive | 43.0 | 55.5 | inactive |  |  |  | 
CC[C@H](C)[C@H](NC(=O)[C@H](Cc1cc(I)c(O)c(I)c1)NC(=O)[C@@H](NC(=O)[C@H](CCCNC(=N)N)NC(=O)CNC)C(C)C)C(=O)N[C@@H](Cc1c[nH]cn1)C(=O)N1CCC[C@H]1C(=O)N[C@H](C)C(=O)O [compound 85] |  | 51.1 | 75.5 |  | 23.4 |  |  | 
CC[C@H](C)[C@H](NC(=O)[C@H](Cc1ccc(O)c(O)c1)NC(=O)[C@@H](NC(=O)[C@H](CCCNC(=N)N)NC(=O)CNC)C(C)C)C(=O)N[C@@H](Cc1c[nH]cn1)C(=O)N1CCC[C@H]1C(=O)N[C@H](C)C(=O)O [compound 67] | Inactive | 100.6 | 117 | inactive |  |  |  | 
CC[C@H](C)[C@H](NC(=O)[C@H](Cc1ccc(O)c(F)c1)NC(=O)[C@@H](NC(=O)[C@H](CCCNC(=N)N)NC(=O)CNC)C(C)C)C(=O)N[C@@H](Cc1c[nH]cn1)C(=O)N1CCC[C@H]1C(=O)N[C@H](C)C(=O)O [compound 69] | Inactive | 53.9 | 88.3 | inactive |  |  |  | 
CN[C@@H](C)C(=O)N[C@@H](CCCNC(=N)N)C(=O)N[C@H](C(=O)N[C@@H](Cc1ccc(O)cc1)C(=O)N[C@H](C(=O)N[C@@H](Cc1c[nH]cn1)C(=O)N1CCC[C@H]1C(=O)N[C@@H](C)C(=O)O)C(C)C)C(C)C [compound 33] | Inactive | 54.9 | 86.9 | inactive |  |  |  | 
CC[C@H](C)[C@H](NC(=O)[C@H](Cc1ccc(O)cc1)NC(=O)[C@@H](NC(=O)[C@@H](N)CCCNC(=N)N)C(C)C)C(=O)N[C@@H](Cc1c[nH]cn1)C(=O)N1CCC[C@H]1C(N)=O [compound 13] | Inactive | 43.4 | 165.3 | inactive |  |  |  | 
CNCC(=O)N[C@@H](CCCNC(=N)N)C(=O)N[C@H](C(=O)NCC(=O)N[C@H](C(=O)N[C@@H](Cc1c[nH]cn1)C(=O)N1CCC[C@H]1C(=O)NCC(=O)O)C(C)C)C(C)C [compound 5] |  | 39.4 | 61.7 |  | 24.8 |  |  | 18.1
CC[C@H](C)[C@@H]1NC(=O)[C@H](Cc2ccc(O)cc2)NC(=O)[C@H](C(C)C)NC(=O)[C@H](Cc2ccccc2)NC(=O)[C@@H]2CCCN2C(=O)[C@H](Cc2c[nH]cn2)NC(=O)[C@H]([C@@H](C)CC)NC(=O)[C@H](Cc2ccc(O)cc2)NC(=O)[C@H](C(C)C)NC(=O)[C@H](Cc2ccccc2)NC(=O)[C@@H]2CCCN2C(=O)[C@H](Cc2c[nH]cn2)NC(=O)[C@H]([C@@H](C)CC)NC(=O)[C@H](Cc2ccc(O)cc2)NC(=O)[C@H](C(C)C)NC(=O)[C@H](Cc2ccccc2)NC(=O)[C@@H]2CCCN2C(=O)[C@H](Cc2c[nH]cn2)NC1=O [compound 37] |  | 62.3 | 60.7 | inactive | 14.7 |  |  | 
CNCC(=O)N[C@@H](CCCNC(=N)N)C(=O)N[C@H](C(=O)N[C@@H](Cc1ccc(O)cc1)C(=O)N[C@@H](Cc1c[nH]cn1)C(=O)N[C@@H](Cc1c[nH]cn1)C(=O)N1CCC[C@H]1C(=O)N[C@@H](C)C(=O)O)C(C)C [compound 22] |  | 54.5 | 74.3 | inactive | 5.2 |  |  | 
CNCC(=O)N[C@@H](CCCNC(=N)N)C(=O)N[C@H](C(=O)N[C@@H](Cc1ccc(O)cc1)C(=O)N[C@H](C(=O)N[C@@H](Cc1c[nH]cn1)C(=O)N1CCC[C@H]1C(=O)N[C@@H](C)C(N)=O)C(C)C)C(C)C [compound 8] |  | 36.9 | 41.8 | inactive | 11.3 |  |  | 
CC[C@H](C)[C@H](NC(=O)[C@@H]1CCCN1C(=O)[C@H](Cc1c[nH]cn1)NC(=O)[C@H](Cc1ccc(O)cc1)NC(=O)[C@H](Cc1ccc(O)cc1)NC(=O)[C@@H](NC(=O)[C@H](CCCNC(=N)N)NC(=O)CNC)C(C)C)C(N)=O [compound 15] |  | 44.3 | 62.1 |  | 51.1 |  |  | 19.3
CC[C@H](C)[C@H](NC(=O)[C@H](Cc1ccc(O)cc1)NC(=O)[C@@H](NC(=O)[C@H](CCCNC(=N)N)NC(=O)CNC)C(C)C)C(=O)N[C@@H](Cc1c[nH]cn1)C(=O)N1CCC[C@H]1C(=O)N[C@@H](C)C(=O)O [compound 9] |  |  | 74.0 | inactive | 9.5 |  |  | 
